# Values of other authors, collected in PubChem BioAssay AID1811 (Shanghai Institute of Organic Chemistry, 2009).
# The other results are listed elsewhere or left out. Active and inactive are the calls of the source. Unless stated, no cut-off for active and inactive is given here.
# Test system: aiia-like protein
# Assay: PubChem AID 1811
# Settings: PDB complex binding affinities from literature
smiles,measurement,value
N[C@H]1CCOC1=O,outcome,active
